Experimental data: patent publication US12139488B2, “Pyrido[3,2-d]pyrimidine compounds uses thereof for treating a proliferative disease” (Universite de Montreal, priority 2021, dated 2024)

Sequences of proteins named here, by UniProt entry; tags and fusion partners are left off.
UniProt P04049, whole entry: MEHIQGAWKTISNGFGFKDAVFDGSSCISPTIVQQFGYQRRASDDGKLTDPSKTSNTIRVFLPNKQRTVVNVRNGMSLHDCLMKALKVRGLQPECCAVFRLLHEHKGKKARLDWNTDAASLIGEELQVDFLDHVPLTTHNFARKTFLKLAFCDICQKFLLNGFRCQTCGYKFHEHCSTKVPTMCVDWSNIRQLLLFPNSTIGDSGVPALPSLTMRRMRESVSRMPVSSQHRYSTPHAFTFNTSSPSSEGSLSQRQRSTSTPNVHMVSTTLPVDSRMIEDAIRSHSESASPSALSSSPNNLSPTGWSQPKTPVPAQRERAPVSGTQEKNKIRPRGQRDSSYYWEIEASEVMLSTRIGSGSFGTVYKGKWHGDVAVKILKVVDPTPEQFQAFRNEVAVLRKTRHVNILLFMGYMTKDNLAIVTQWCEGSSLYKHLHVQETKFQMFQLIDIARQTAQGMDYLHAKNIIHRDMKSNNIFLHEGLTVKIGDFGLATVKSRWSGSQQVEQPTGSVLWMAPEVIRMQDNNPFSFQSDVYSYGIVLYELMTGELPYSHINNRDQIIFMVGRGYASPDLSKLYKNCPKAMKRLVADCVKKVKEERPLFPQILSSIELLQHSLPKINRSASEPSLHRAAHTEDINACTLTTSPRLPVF
UniProt P15056, whole entry: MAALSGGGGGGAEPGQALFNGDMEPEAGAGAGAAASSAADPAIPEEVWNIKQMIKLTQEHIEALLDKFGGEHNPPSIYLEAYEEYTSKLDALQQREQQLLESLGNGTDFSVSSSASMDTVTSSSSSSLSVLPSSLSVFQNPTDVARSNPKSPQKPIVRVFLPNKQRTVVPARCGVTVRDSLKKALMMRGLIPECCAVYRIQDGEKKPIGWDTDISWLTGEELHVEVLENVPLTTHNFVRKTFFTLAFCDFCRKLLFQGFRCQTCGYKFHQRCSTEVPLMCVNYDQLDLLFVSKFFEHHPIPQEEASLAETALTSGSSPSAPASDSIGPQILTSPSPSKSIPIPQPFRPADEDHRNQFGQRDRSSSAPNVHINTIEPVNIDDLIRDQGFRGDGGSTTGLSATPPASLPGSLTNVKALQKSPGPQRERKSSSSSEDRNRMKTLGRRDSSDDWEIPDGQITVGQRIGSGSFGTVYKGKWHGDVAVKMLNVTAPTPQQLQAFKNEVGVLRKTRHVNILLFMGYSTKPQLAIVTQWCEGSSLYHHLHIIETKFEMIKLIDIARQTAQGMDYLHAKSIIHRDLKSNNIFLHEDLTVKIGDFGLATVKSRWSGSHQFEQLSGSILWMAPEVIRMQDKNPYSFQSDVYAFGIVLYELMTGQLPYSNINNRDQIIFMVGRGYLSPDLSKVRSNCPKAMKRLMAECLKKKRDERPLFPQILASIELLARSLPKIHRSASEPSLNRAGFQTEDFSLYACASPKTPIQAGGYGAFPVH

Tests used:
[1] = tested on: pERK in HCT-116 cells (KRAS G13D); experiment: Phospho-ERK inhibition (AlphaLISA SureFire Ultra p-ERK 1/2), HCT116; details: for HCT116 pERK % Ymin (lowest value of the IC50 curve): Ymin above −20% = minimal or no paradoxical activation
Summary of the method: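 pERK1/2 (Thr202/Tyr204) AlphaLISA, 1 h cpd, 10 conc. 10 μM→0.33 nM, 0.5% DMSO, RPMI-1640 + 5% FBS. Trametinib = 100%, DMSO = 0%. IC50, 4-param fit.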

CRAF = CRAF (Homo sapiens, UniProt P04049); experiment: CRAF kinase activity assay (ADP-Glo)
BRAF = BRAF (Homo sapiens (Human), UniProt P15056); experiment: BRAF kinase activity assay (ADP-Glo)
[2] = HCT116 cells, Ymin in brackets, tested form: formic acid salt
[3] = read-out: HCT116 pERK IC50, HCT116 cells, class symbol before the bracket, tested form: formic acid salt
[4] = read-out: Kinase IC50 (nM) CRAF, tested form: formic acid salt
[5] = read-out: Kinase IC50 (nM) BRAF, tested form: formic acid salt
[6] = read-out: HCT116 pERK IC50, HCT116 cells
[7] = read-out: Kinase IC50 (nM), CRAF biochemical kinase assay, CRAF
[8] = read-out: Kinase IC50 (nM), BRAF biochemical kinase assay, BRAF
[9] = read-out: HCT116 pERK IC50, HCT116 cells, class symbol before the bracket
[10] = read-out: Kinase IC50 (nM) CRAF
[11] = read-out: Kinase IC50 (nM) BRAF

| SMILES | HCT116 pERK % Ymin (lowest value of the IC50 curve) ([1]; HCT116 cells) | IC50 [1, 6] | IC50 (CRAF; [7]) | IC50 (BRAF; [8]) | IC50 [1, 9] | IC50 (CRAF; [10]) | IC50 (BRAF; [11]) | HCT116 pERK Ymin % ([1]; HCT116 cells, Ymin in brackets) | also measured |
| --- | --- | --- | --- | --- | --- | --- | --- | --- | --- |
| Cc1c(Cl)cccc1S(=O)(=O)Nc1ccc(F)c(Nc2ncnc3ccc(-n4cc(C(=O)N5CCNC[C@@H]5C)c5ccccc54)nc23)c1F |  |  |  |  |  |  |  |  | HCT116 pERK Ymin % [1, 2]: 2.5%; IC50 [1, 3]: < 0.5 µM; IC50 (CRAF; [4]): < 10 nM; IC50 (BRAF; [5]): < 1 nM |
| COCCOCCOc1cccc2c1ncn2-c1ccc2ncnc(Nc3c(F)ccc(NS(=O)(=O)c4cccc(Cl)c4Cl)c3F)c2n1 | −4% | 1 to 10 µM | < 10 nM | 1 to 10 nM |  |  |  |  |  |
| CC(C)C1(O)CCN(c2cccc3c2ncn3-c2ccc3ncnc(Nc4c(F)ccc(NS(=O)(=O)c5cccc(Cl)c5Cl)c4F)c3n2)CC1 | −8% | < 0.5 µM | < 10 nM | 1 to 10 nM |  |  |  |  |  |
| O=S(=O)(Nc1ccc(F)c(Nc2ncnc3ccc(-n4nnc5ccccc54)nc23)c1F)c1ccccc1Cl |  |  |  |  | < 0.5 µM | < 10 nM | 1 to 10 nM | 2.4% |  |
| CNc1nnc(-c2nn(-c3ccc4ncnc(Nc5c(F)ccc(NS(=O)(=O)c6cccc(Cl)c6Cl)c5F)c4n3)c3ccccc23)o1 |  |  |  |  | 1 to 10 µM | 10 to 50 nM | 1 to 10 nM | 1% |  |
| O=S(=O)(Nc1ccc(F)c(Nc2ncnc3ccc(-n4nnc5c(F)cccc54)nc23)c1F)c1cccc(Cl)c1Cl | −13% | < 0.5 µM | < 10 nM | 1 to 10 nM |  |  |  |  |  |
| CC1(N)CCN(c2cccc3c2nnn3-c2ccc3ncnc(Nc4c(F)ccc(NS(=O)(=O)c5cccc(Cl)c5Cl)c4F)c3n2)CC1 | 0% | < 0.5 µM | < 10 nM | < 1 nM |  |  |  |  |  |
| COc1ccc(S(=O)(=O)Nc2ccc(F)c(Nc3ncnc4ccc(-n5nnc6ccccc65)nc34)c2F)c(C)c1 |  |  |  |  | 0.5 to 1 µM | 10 to 50 nM | > 10 nM | 4.3% |  |
| Cc1c(F)cccc1S(=O)(=O)Nc1ccc(F)c(Nc2ncnc3ccc(-n4nc(C(=O)NCC5(O)CC5)c5ccccc54)nc23)c1F |  |  |  |  | 0.5 to 1 µM | 10 to 50 nM | 1 to 10 nM | −2.0% |  |
| Cc1c(Cl)cccc1S(=O)(=O)Nc1ccc(F)c(Nc2ncnc3ccc(-n4cc(C(=O)N5CCNC[C@H]5C)c5ccccc54)nc23)c1F |  |  |  |  |  |  |  |  | HCT116 pERK Ymin % [1, 2]: −3.3%; IC50 [1, 3]: < 0.5 µM; IC50 (CRAF; [4]): > 50 nM; IC50 (BRAF; [5]): < 1 nM |
| O=S(=O)(Nc1ccc(F)c(Nc2ncnc3ccc(-n4cnc5ccccc54)nc23)c1F)c1cccc(Cl)c1C(F)(F)F |  |  |  |  |  | < 10 nM | 1 to 10 nM |  | HCT116 pERK Ymin % ([1]; lowest % inhibition value of the IC50 curve, HCT116): −8%; IC50 ([1]; read-out: HCT116 pERK IC50 in μM, HCT116 cells, 1 h treatment): < 0.5 µM |
| Cc1c(F)cccc1S(=O)(=O)Nc1ccc(F)c(Nc2ncnc3ccc(-n4cnc5c(N)cccc54)nc23)c1F |  |  |  |  |  |  |  |  | HCT116 pERK Ymin % ([1]; HCT116 cells, Ymin in brackets, tested form: HCl): −7.4%; IC50 ([1]; read-out: HCT116 pERK IC50, HCT116 cells, class symbol before the bracket, tested form: HCl): < 0.5 µM; IC50 (CRAF; read-out: Kinase IC50 (nM) CRAF, tested form: HCl): < 10 nM; IC50 (BRAF; read-out: Kinase IC50 (nM) BRAF, tested form: HCl): < 1 nM |
| CCC1(O)CCN(c2cccc3c2ncn3-c2ccc3ncnc(Nc4c(F)ccc(NS(=O)(=O)c5ccc(OC)c(F)c5C)c4F)c3n2)CC1 | 5% | < 0.5 µM | 10 to 50 nM | 1 to 10 nM |  |  |  |  |  |
| N#CC1CCN(c2cccc3c2nnn3-c2ccc3ncnc(Nc4c(F)ccc(NS(=O)(=O)c5cccc(Cl)c5Cl)c4F)c3n2)CC1 | −2% | < 0.5 µM | 10 to 50 nM | 1 to 10 nM |  |  |  |  |  |
| Cc1c(F)cccc1S(=O)(=O)Nc1ccc(F)c(Nc2ncnc3ccc(-n4nc(C(=O)NCCCO)c5ccccc54)nc23)c1F |  |  |  |  | < 0.5 µM | < 10 nM | 1 to 10 nM | −9.4% |  |
| CC(C)N1CCN(c2cccc3c2nnn3-c2ccc3ncnc(Nc4c(F)ccc(NS(=O)(=O)c5cccc(Cl)c5Cl)c4F)c3n2)CC1 [Example 619] | −13% | < 0.5 µM | < 10 nM | < 1 nM |  |  |  |  |  |

Now from value to molecule, other results behind:

| HCT116 pERK % Ymin (lowest value of the IC50 curve) ([1]; HCT116 cells) | IC50 [1, 6] | IC50 (CRAF; [7]) | IC50 (BRAF; [8]) | IC50 [1, 9] | IC50 (CRAF; [10]) | IC50 (BRAF; [11]) | SMILES | HCT116 pERK Ymin % ([1]; HCT116 cells, Ymin in brackets) | also measured |
| --- | --- | --- | --- | --- | --- | --- | --- | --- | --- |
|  |  |  |  | < 0.5 µM | 10 to 50 nM | < 1 nM | Cc1c(F)cccc1S(=O)(=O)Nc1ccc(F)c(Nc2ncnc3ccc(-n4nc(C(=O)NCC5(O)COC5)c5ccccc54)nc23)c1F | −10.9% |  |
|  |  |  |  | < 0.5 µM | 10 to 50 nM | < 1 nM | O=C(c1nn(-c2ccc3ncnc(Nc4c(F)ccc(NS(=O)(=O)c5cccc(Cl)c5Cl)c4F)c3n2)c2ccccc12)N1CCOCC1 | 5.2% | YMIN of pERK IC50 dose response curve (paradoxical induction of pERK signaling) ([1]; RAS-mutant HCT116 cells, FIG. 1): > −20% |
|  |  |  |  | 0.5 to 1 µM | 10 to 50 nM | 1 to 10 nM | Cc1c(Cl)cccc1S(=O)(=O)Nc1ccc(F)c(Nc2ncnc3ccc(-n4cc(C(=O)N5CCOCC5)nc4C)nc23)c1F | −10% |  |
|  |  |  |  | 1 to 10 µM | 10 to 50 nM | 1 to 10 nM | Cc1nn(-c2ccc3ncnc(Nc4c(F)ccc(NS(=O)(=O)c5cccc(Cl)c5C)c4F)c3n2)cc1C(=O)N1CCOCC1 | −5% |  |
|  |  |  |  | 1 to 10 µM | > 50 nM | 1 to 10 nM | O=S(=O)(Nc1ccc(F)c(Nc2ncnc3ccc(-n4cnc5c(CN6CCO[C@H](CO)C6)cccc54)nc23)c1F)c1ccccc1Cl | −8% |  |
|  |  |  |  | 1 to 10 µM | > 50 nM | > 10 nM | Cc1c(Cl)cccc1S(=O)(=O)Nc1ccc(F)c(Nc2ncnc3ccc(-n4nc(C(=O)N5CCC(O)(C(F)(F)F)CC5)c5ccccc54)nc23)c1F | −7% |  |
| −15% | < 0.5 µM | 10 to 50 nM | 1 to 10 nM |  |  |  | Cc1c(F)cccc1S(=O)(=O)Nc1ccc(F)c(Nc2ncnc3ccc(-n4cnc5c(N6CCC(O)(C(F)(F)F)CC6)cccc54)nc23)c1F |  |  |
| −3% | < 0.5 µM | 10 to 50 nM | 1 to 10 nM |  |  |  | O=S(=O)(Nc1ccc(F)c(Nc2ncnc3ccc(-c4ncc(CO)s4)nc23)c1F)c1cccc(Cl)c1Cl |  |  |
|  |  |  |  | 0.5 to 1 µM | < 10 nM | < 1 nM | Cc1c(Cl)cccc1S(=O)(=O)Nc1ccc(F)c(Nc2ncnc3ccc(-n4nc(C(=O)N5CCNC(=O)C5)c5ccccc54)nc23)c1F | −6% |  |
|  |  |  |  | 1 to 10 µM | > 50 nM | 1 to 10 nM | O=S(=O)(Nc1ccc(F)c(Nc2ncnc3ccc(-n4cnc5c(CN6CCO[C@@H](CO)C6)cccc54)nc23)c1F)c1ccccc1Cl | 0% |  |
|  |  |  |  | < 0.5 µM | 10 to 50 nM | < 1 nM | Cc1c(Cl)cccc1S(=O)(=O)Nc1ccc(F)c(Nc2ncnc3ccc(-n4nc(C(=O)N5CCC[C@H](O)C5)c5ccccc54)nc23)c1F | 6.6% |  |
|  |  |  |  | < 0.5 µM | < 10 nM | < 1 nM | Cc1c(F)cccc1S(=O)(=O)Nc1ccc(F)c(Nc2ncnc3ccc(-n4nc(C(=O)N(C)C)c5ccccc54)nc23)c1F | −19% |  |
| −14% | < 0.5 µM | 10 to 50 nM | > 10 nM |  |  |  | CC1(C#N)CCN(c2cccc3c2ncn3-c2ccc3ncnc(Nc4c(F)ccc(NS(=O)(=O)c5cccc(Cl)c5Cl)c4F)c3n2)CC1 |  |  |
|  |  |  |  | 0.5 to 1 µM | > 50 nM | 1 to 10 nM | Cc1cn(-c2ccc3ncnc(Nc4c(F)ccc(NS(=O)(=O)c5cccc(Cl)c5C)c4F)c3n2)nc1C(=O)N1CCN(C)CC1 | −5.6% |  |
| −6% | 1 to 10 µM | 10 to 50 nM | 1 to 10 nM |  |  |  | O=S(=O)(Nc1ccc(F)c(Nc2ncnc3ccc(-c4cnco4)nc23)c1F)c1cccc(Cl)c1Cl |  |  |

Read-outs that look alike come from different tables or passages of the source.
